Data reported in BindingDB's records for doi:10.1111/j.1747-0285.2008.00745.x (University of Connecticut, 2009).

Molecular target: T1, Dihydrofolate reductase (Homo sapiens, UniProt P00374)
T1 sequence (P00374 whole entry): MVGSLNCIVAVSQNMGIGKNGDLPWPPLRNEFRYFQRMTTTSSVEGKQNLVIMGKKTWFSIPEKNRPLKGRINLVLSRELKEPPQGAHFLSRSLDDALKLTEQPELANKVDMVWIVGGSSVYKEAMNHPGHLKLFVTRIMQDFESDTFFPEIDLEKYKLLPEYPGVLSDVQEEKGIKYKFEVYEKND
Test: Enzyme Inhibition Assay

## COc1cc(-c2ccc(C(C)(C)C)cc2)cc(C(C)C#Cc2c(C)nc(N)nc2N)c1 (racemic) [Biphenyl antifolate, 24]
  IC50: 210 nM

## COc1ccc(-c2cc(OC)cc(C(C)C#Cc3c(C)nc(N)nc3N)c2)cc1 (racemic)
  IC50: 180 nM
